Antibody variant affinities, Ab-14 heavy chain, assay B

Source: Li et al. 2023 (doi:10.1038/s41467-023-39022-2), MIT Lincoln Laboratory and A-Alpha Bio; data file from the FLAb repository.

The target is the same throughout: PDVDLGDISGINAS, from the HR2 region of SARS-CoV-2 spike.

Parent: Ab-14, a human scFv built as VH, a 15-residue (Gly4Ser)3 linker, VL. Only the CDRs of the heavy chain vary.
VH: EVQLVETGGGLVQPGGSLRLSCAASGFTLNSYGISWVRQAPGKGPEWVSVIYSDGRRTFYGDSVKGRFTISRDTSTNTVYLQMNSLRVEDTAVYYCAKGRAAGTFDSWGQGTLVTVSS
VL: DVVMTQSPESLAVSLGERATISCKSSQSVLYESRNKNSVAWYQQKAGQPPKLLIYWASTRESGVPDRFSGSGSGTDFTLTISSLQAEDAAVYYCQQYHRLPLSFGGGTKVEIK

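Designed CDR sequences, proposed from the first random library and measured here. Group labels follow the data file (Ctrl: baseline library sampled from a position-specific scoring matrix, with some repeated check sequences; Rand: our label for a block that the file lists under HC and that is probably the random mutants of the ten best first-round binders; En: ensemble of fine-tuned language models; GP: Gaussian process model; GPLM: also part of the Gaussian process libraries; HC: hill climbing; Gen: genetic algorithm; Gibbs: Gibbs sampling; a sequence that several methods proposed may carry one label only). The assay is AlphaSeq: two haploid yeast populations carry antibody and antigen on their surface. The frequency of each diploid, read from paired DNA barcodes, reflects how well the two displayed proteins bind. The ratio of observed to expected reads was calibrated, replicate by replicate, on BCL2-family standards whose Kd was known from biolayer interferometry. Mating was done six times.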

Each variant is given by its three heavy chain CDRs, as the data file delimits them; those of the parent are GFTLNSYGIS, VIYSDGRRTFYGDSVK, GRAAGTFDS.
Affinities are written as log10 Kd with Kd in nM; a lower number is a better binder.
A pair that was not seen in that replicate is written "ND"; this usually means weak binding, but a binder can also be missed.
The authors' rule: three or more of the six replicates give a measured affinity, fewer mean a poor binder.

GFNLEEYGIS | VIYADGFRAAYKQKVK | GQDGLVGMD [En_Gibbs]: ND, ND, ND, ND, ND, ND (controls 0 of 18).
GFDLNEYGIS | VIYADGQRTFYTDSVK | GEHAGTFDV [En_HC]: -0.11, -0.36, -0.61, -0.68, -0.58, -0.53 (controls 0 of 18).
GKGLDEYGVS | VIYADGVRKSYVDDVK | GGIAGNFLV [En_Gibbs]: ND, ND, ND, ND, ND, ND (controls 0 of 18).
GFDLNEYGIS | VIYADGVRKAYADSVK | GENAGTFDV [En_Gen]: -0.13, -0.27, -0.86, -0.58, -0.42, -0.42 (controls 0 of 18).
GFVLNEYGIS | VIYSDGRRTFYADSVK | GRAAGTFDS [GPLM_Gen]: 0.76, 0.33, 0.26, 0.43, 0.56, 0.72 (controls 0 of 18).
GLTLNSYGIS | VIYSDGRRTFYSDSVK | GRAGGTFMS [Rand]: ND, ND, ND, ND, 4.20, ND (controls 0 of 18).
GFQLNTYGIS | VIYSDGRRTFYGDSVK | GRTAGTFDS [GPLM_Gen]: ND, 1.42, 1.32, 0.61, 0.63, ND (controls 0 of 18).
GFTLNSYGIS | VIYSDGRRTFYADSVK | GQAVGTFDS [GP_HC]: ND, ND, ND, ND, ND, ND (controls 1 of 18).
GFTLNSYGIS | VIYSDGRRTFYSDAVK | GRAAGTFHS [Ctrl]: ND, ND, ND, ND, ND, ND (controls 0 of 18).
GFTLLSYGIN | VIYSDGRRTFYGDSVK | GRAAGTFDS [Ctrl]: ND, ND, ND, ND, ND, ND (controls 0 of 18).
RFTLNCYGIS | VIYSDGRRTQYIDSVK | GRIAGTFDS [Rand]: ND, ND, ND, ND, ND, ND (controls 0 of 18).
GFDLDEYGIS | VIYADGKRTAYADSVK | GGNAGTFDL [En_Gen]: -0.07, -0.25, -0.33, -0.39, -0.48, -0.25 (controls 1 of 18).
GFDLNEYGIS | VIYADGQRTFYVDSVK | GVNAGTFDS [En_HC]: 0.02, -0.21, -0.26, -0.08, -0.31, -0.19 (controls 0 of 18).
GFSLNSYGIS | VIYADGRRTFYGDQVK | GKAAGTFDR [GP_Gibbs]: 0.30, 0.99, 0.46, 0.33, 0.43, 0.45 (controls 0 of 18).
GFSLSSYGIS | VIYSDGRRTFYSDSEK | GRATGLFDG [Ctrl]: ND, ND, ND, ND, ND, ND (controls 0 of 18).
GFQLDEYGIS | VIYADGSRTAYADSVK | GAYKFSLVV [En_Gibbs]: ND, ND, ND, ND, ND, ND (controls 0 of 18).
GFSLNSYGIS | VIYSDGRRTFYKDSVK | GNTAGTFDS [GP_Gen]: -0.14, -0.28, -0.01, -0.26, -0.46, -0.21 (controls 1 of 18).
GFTLNSYGIS | VIYSDGRRTFYDDNVK | GKLAGTFDS [GP_HC]: 2.68, 1.90, 2.03, 1.90, ND, 2.31 (controls 0 of 18).
GFDLNEYGIS | VIYADGQRTFYTDSVK | GTFAGTFDV [En_HC]: -0.65, -0.74, -1.01, -0.80, -1.25, -0.55 (controls 0 of 18).
GFSLNSYGIS | VIYSDGRRTFYADSVK | GRTAGTFDA [GPLM_Gen]: -0.09, -0.36, -0.31, -0.19, -0.39, -0.10 (controls 2 of 18).
GFTINSYGIS | VIYSDGLRTFYGDSVK | GRAALTFDS [Ctrl]: ND, ND, ND, ND, ND, ND (controls 0 of 18).
GFVLNAYGIS | VIYSDGRRTFYADSVK | GEAAGTFDS [GP_Gibbs]: 2.22, 1.86, 1.84, 1.25, 1.17, 1.71 (controls 1 of 18).
GFDLNEYGIS | VIYADGRRTFYVDSVK | GVNAGTFDE [En_HC]: ND, ND, ND, -1.00, ND, 0.84 (controls 0 of 18).
GFDLDEYGIS | VIYADGTRTAYADSVK | GNNAGTFDV [En_Gen]: -0.13, -0.09, 0.05, -0.17, 0.13, 0.28 (controls 0 of 18).
GFSFNEYGIS | VIYADGKRQFYANTVK | GGKDAAFDI [En_Gibbs]: ND, ND, ND, ND, ND, ND (controls 0 of 18).
GFDLNDYGIS | VIYSDGRRTFYGDQVK | GRTAGTFDS [GP_Gibbs]: 0.03, 0.44, -0.16, 0.42, 0.05, 0.78 (controls 0 of 18).
GFDLNEYGIS | VIYSDGRRTFYGDAVK | GNAAGTFDS [GP_HC]: 0.08, 0.38, 0.12, -0.52, 0.43, 0.20 (controls 0 of 18).
GFDLKQYGIS | VIYADGRRTAYDNDVK | GQVAGIFLD [En_Gibbs]: 1.51, 1.63, 0.72, 1.38, 1.47, ND (controls 0 of 18).
GFDLNEYGIS | VIYADGSRTAYVDSVK | GNVAGTFDQ [En_Gen]: -0.99, -0.58, -0.69, -0.74, -0.83, -0.68 (controls 0 of 18).
GFTLSSYGIS | TIYSDGRRTFYGDSVK | GRAAGTDDS [Ctrl]: ND, ND, ND, ND, ND, ND (controls 0 of 18).
GFSLNSYGIS | VIYSDGRRTFYLDSVK | GNAAGTFDS [GPLM_Gen]: -0.23, 1.28, -0.29, 1.14, -0.01, -0.04 (controls 0 of 18).
GFSLEDYGIS | VIYADGVRTAYVNAVK | GTWGATILG [En_Gibbs]: ND, ND, ND, ND, ND, ND (controls 0 of 18).
GFDLDEYGIS | VIYADGRRTAYADDVK | GQNAGTFDV [En_Gen]: 0.28, -0.61, -0.74, -0.53, 0.01, -0.22 (controls 0 of 18).
GRDIESYGIS | VIYADGLRTVYHDSVK | GQNAGFSIT [En_Gibbs]: ND, ND, ND, ND, ND, ND (controls 0 of 18).
GQGLNEYGIS | VIYADGMRTYYAPNVK | GQVLGVMDI [En_Gibbs]: ND, ND, ND, ND, ND, ND (controls 0 of 18).
GFDLNSYGIS | VIYSDGRRTFYGDSVK | GRHAGTFNS [GP_HC]: ND, ND, ND, ND, ND, ND (controls 0 of 18).
GFDLNEYGIS | VIYADGKRTAYADSVK | GNTAGTFDV [En_Gen]: -0.17, -0.17, -0.05, -0.83, -0.42, -0.38 (controls 0 of 18).
GFDINEYGIS | VIYADGRRTFYADSVK | GNQGGTFDI [En_HC]: -0.02, 0.20, -0.91, 0.57, 0.81, ND (controls 0 of 18).
GFELNSYGIS | VIYSDGSRTFYGDSVK | GANAGTFDS [Ctrl]: ND, 1.94, 2.00, 1.59, ND, ND (controls 0 of 18).
GFNLNSYGIS | VIYSDGRRTFYGDSVK | GRHAGTFDS [GPLM_Gibbs]: ND, 1.11, ND, 1.12, 1.96, ND (controls 0 of 18).
GFDLDECGIS | VIYADGRRQMYAVSFK | GEIGGTFLM [En_Gibbs]: ND, ND, ND, ND, ND, ND (controls 0 of 18).
GKDIEEYGIS | VIYADGVRAAYADSVK | GINMDIMTD [En_Gibbs]: ND, ND, ND, ND, ND, ND (controls 0 of 18).
GFTLNSYGIH | VIYSDGRRTFYGDSVK | NQAAGTFDS [Ctrl]: ND, ND, ND, ND, ND, ND (controls 0 of 18).
GFDLNEYGIS | VIYADGMRTAYSDSVK | GNNAGTFDV [En_Gen]: 2.09, 0.45, -0.33, 1.90, 0.43, 1.10 (controls 0 of 18).
GFCLNDYGIS | VIYSDGRRTFYADSVK | GRTAGTFDE [GP_HC]: 2.30, 1.57, 1.30, 2.50, 3.31, 2.53 (controls 0 of 18).
GFDLEDYGIS | VIYADGMRTAYSDSVK | GNVAGTFDL [En_Gen]: 0.04, -0.30, -0.44, -0.62, -0.80, -0.21 (controls 0 of 18).
GFSLNSYGIS | VIYSDGRRTFYIDSVK | GMLAGTFDS [GP_HC]: 0.64, 0.05, 1.29, 0.10, -0.46, 0.59 (controls 0 of 18).

For reference, 8 entries of the list once more:

CDR-H1	CDR-H2	CDR-H3	group	log10 Kd (nM) by replicate	empty controls
GFSLNSYGIS	VIYSDGRRTFYKDSVK	GNTAGTFDS	GP_Gen	-0.14, -0.28, -0.01, -0.26, -0.46, -0.21	1/18
RFTLNCYGIS	VIYSDGRRTQYIDSVK	GRIAGTFDS	Rand	ND, ND, ND, ND, ND, ND	0/18
GFDLDECGIS	VIYADGRRQMYAVSFK	GEIGGTFLM	En_Gibbs	ND, ND, ND, ND, ND, ND	0/18
GFDLNEYGIS	VIYADGKRTAYADSVK	GNTAGTFDV	En_Gen	-0.17, -0.17, -0.05, -0.83, -0.42, -0.38	0/18
GFSLNSYGIS	VIYSDGRRTFYIDSVK	GMLAGTFDS	GP_HC	0.64, 0.05, 1.29, 0.10, -0.46, 0.59	0/18
GFDLNEYGIS	VIYADGQRTFYTDSVK	GEHAGTFDV	En_HC	-0.11, -0.36, -0.61, -0.68, -0.58, -0.53	0/18
GFDLKQYGIS	VIYADGRRTAYDNDVK	GQVAGIFLD	En_Gibbs	1.51, 1.63, 0.72, 1.38, 1.47, ND	0/18
GKDIEEYGIS	VIYADGVRAAYADSVK	GINMDIMTD	En_Gibbs	ND, ND, ND, ND, ND, ND	0/18

A sequence measured in both rounds can read differently, since the two assays cover different ranges.
As a blank, each scFv also met three strains without target: over all heavy chain designs, 1% of these pairings were detected, typically at 2.08 and seldom below 0.84. For each scFv, signals with the empty controls are counted beside the result.
The parent sequence was in this pool as ten entries: three were never detected, three once, and four in most replicates, with averages from 0.34 to 2.37.